Apparent affinities of Ab-14 variants for a coronavirus HR2 peptide

Values reported by Engelhart et al. 2022, doi:10.1038/s41597-022-01779-4 (FLAb copy).

Target: peptide PDVDLGDISGINAS, taken from heptad repeat 2 (HR2) of SARS-CoV-2 spike.

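Phage display of a naive human antibody library on the peptide gave the parent. Library AAYL49 holds single substitutions and randomly drawn double and triple substitutions in the CDRs. AlphaSeq pools MATa yeast showing the antibodies with MATalpha yeast showing the peptide. Binding brings cells together so that they mate, and sequencing counts the barcode pairs among the diploids. A regression on co-assayed BCL2-family reference pairs converts the normalised counts of each replicate to an apparent Kd. The assay was run in three technical replicates.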

Ab-14 is the parent antibody, in scFv form: VH, then a 15-residue (Gly4Ser)3 linker, then VL. The light chain is unchanged in all variants.
VH: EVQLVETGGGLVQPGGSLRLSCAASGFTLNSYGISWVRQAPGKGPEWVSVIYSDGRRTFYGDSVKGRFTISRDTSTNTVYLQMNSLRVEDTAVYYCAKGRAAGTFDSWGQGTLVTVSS
VL: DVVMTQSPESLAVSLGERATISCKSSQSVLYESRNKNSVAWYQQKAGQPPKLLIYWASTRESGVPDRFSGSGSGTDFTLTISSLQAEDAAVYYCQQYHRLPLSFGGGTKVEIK

Changes read parent residue, position, new residue, counted from the first residue of the VH shown. The read-out is the apparent dissociation constant on a log10 scale (nM): the lower, the stronger. A mean of the replicates is given; it leaves out those without a signal. A pair that was not seen in any replicate is written "not detected"; this usually means weak binding, but a binder can also be missed. In this assay the parent's reference entry averaged 0.65; its copy inside this library read 4.11 (one replicate of three). Nonspecific signal, from three strains lacking the peptide, appeared in 15% of pairings of library AAYL49, centred on 4.06 (5% of these signals below 2.83); values are not corrected for it.

{"changes": "G33N Y60Q D106E", "mean, log10 nM": "not detected", "detected": "0 of 3"}
{"changes": "Y60L R100K D106A", "mean, log10 nM": "3.73", "detected": "2 of 3"}
{"changes": "G26C T58S S107P", "mean, log10 nM": "4.06", "detected": "2 of 3"}
{"changes": "N30R R100L", "mean, log10 nM": "4.62", "detected": "3 of 3"}
{"changes": "F27E S31I R57V", "mean, log10 nM": "not detected", "detected": "0 of 3"}
{"changes": "D54Q R56W", "mean, log10 nM": "not detected", "detected": "0 of 3"}
{"changes": "Y52D S63H V64C", "mean, log10 nM": "not detected", "detected": "0 of 3"}
{"changes": "T58K G103R F105P", "mean, log10 nM": "not detected", "detected": "0 of 3"}
{"changes": "S63H D106F", "mean, log10 nM": "0.81", "detected": "3 of 3"}
{"changes": "D54N R57H G103Y", "mean, log10 nM": "not detected", "detected": "0 of 3"}
{"changes": "G33A R56T", "mean, log10 nM": "4.81", "detected": "1 of 3"}
{"changes": "S31L R57W Y60A", "mean, log10 nM": "not detected", "detected": "0 of 3"}
{"changes": "T28M D54P F105T", "mean, log10 nM": "not detected", "detected": "0 of 3"}
{"changes": "F27S N30A S31P", "mean, log10 nM": "4.33", "detected": "1 of 3"}
{"changes": "G26A G33Y R57N", "mean, log10 nM": "not detected", "detected": "0 of 3"}
{"changes": "G33L D54S F105G", "mean, log10 nM": "not detected", "detected": "0 of 3"}
{"changes": "L29I S53H D54C", "mean, log10 nM": "not detected", "detected": "0 of 3"}
{"changes": "L29Q G33M T58P", "mean, log10 nM": "3.23", "detected": "1 of 3"}
{"changes": "T28L R57A", "mean, log10 nM": "4.30", "detected": "2 of 3"}
{"changes": "V50E F105K S107Y", "mean, log10 nM": "3.30", "detected": "1 of 3"}
{"changes": "S31T Y32T R100D", "mean, log10 nM": "3.43", "detected": "3 of 3"}
{"changes": "D54A R100L S107D", "mean, log10 nM": "not detected", "detected": "0 of 3"}
{"changes": "Y32R G33W R56C", "mean, log10 nM": "not detected", "detected": "0 of 3"}
{"changes": "Y52L A102V F105Y", "mean, log10 nM": "not detected", "detected": "0 of 3"}
{"changes": "V64S G103E", "mean, log10 nM": "not detected", "detected": "0 of 3"}
{"changes": "Y52C Y60K", "mean, log10 nM": "not detected", "detected": "0 of 3"}

Excerpt, the final 3 entries:

| changes | mean, log10 nM | detected |
|---|---|---|
| Y52L A102V F105Y | not detected | 0 of 3 |
| V64S G103E | not detected | 0 of 3 |
| Y52C Y60K | not detected | 0 of 3 |